# Reference: PubChem BioAssay AID435003 (Sanford-Burnham Center for Chemical Genomics, 2010)
# The list shows a part of the results, in another mix than the full data. The source made the active and inactive calls. Rule as the data show it: active = inhibition above about 50%; inactive = the rest.
# Test: inhibitors of induced NF-kB luciferase reporter, primary screen, TCR NF-kB activation inhibitor project, cell-based, luminescence, uHTS (AID 435003)
# Conditions: Jurkat, PMA/ionomycin-induced NF-kB luciferase reporter, at 4 µM, stronger effect = higher value
row,SMILES,inhibition
1,O=[As](O)(c1ccccc1Br)c1ccccc1Br,inactive: -1.37%
